The target of the assay is T1, phosphorylated Tau protein (Homo sapiens, UniProt P10636).
T1 construct: from tissue; host or cells: brain extracts from Alzheimer (AD+) and non-Alzheimer (AD-) patients, diluted in a pool of normal plasmas
Briefly: Precipitation of phosphorylated Tau protein from brain extracts spiked into plasma by agent I, PhosphoTau ELISA of pellet and supernatant. The conditions noted are these: AD+ brain extracts spiked into plasma, 60 minutes at 37° C. The method, then: The analysis is carried out according to the conventional “ELISA sandwich-type” immunoenzymatic technique as described by Kohnken et al. (Neuroscience Letters 287 (2000) 187-190).
The PhosphoTau Elisa assay is based on the use of Dynex microplates to which are bound 3 μg/ml of goat anti-mouse Fc antibodies (Pierce) in a 25 mM KHPO4 buffer (pH 7.2) containing 140 mM NaCl, 1 mM EDTA and 2 mM NaN3, for three hours at 24° C. The wells are then passivated with a TBS (25 mM Tris-HCl, pH 7.5, 140 mM NaCl)-casein (1%) buffer for 1 h at 24° C., and then incubated for 2 h at 24° C. with 3 μg/ml of Tau1 (Chemicon) and CP27 (AppliedNeuroSolutions) antibodies diluted in TBS casein buffer.
Standards and brain extracts are diluted in a pool of normal plasmas for these assays and deposited at a rate of 80 μL per well in duplicate. […] The biotinylated antibody is detected with 0.4 μg/ml of a streptavidin-peroxydase conjugate (Pierce) diluted in TBS-casein buffer and incubated for 45 minutes at 24° C. A Lumiglo reagent (Kirkegaard and Perry laboratories, US) is added to each well and the chemiluminescence is read in a luminometer (Berthold, Centro LB 960). […]
The pellets are recovered and are separated from the supernatants. […] The samples are then ready to be deposited on plates. […]
The pellets are recovered and are separated from the supernatants. […] The samples are then ready to be deposited onto plates.

Structures are written as SMILES.

As for `[H]/N=C(/N)N[C@H]1[C@H](O)[C@@H](O)[C@H](O[C@@H]2O[C@@H](C)[C@](O)(C=O)[C@H]2O[C@@H]2O[C@@H](CO)[C@H](O)[C@@H](O)[C@@H]2NC)[C@@H](N/C(N)=N\[H])[C@@H]1O` [streptomycin], the “concentration of agent I that eliminates the presence of phosphorylated Tau protein in the supernatant” value was 500 mg/mL. In addition, the “fraction in which the phosphorylated Tau protein is found after treatment with agent I” value (streptomycin at low concentration) is reported as “found in the pellet”.

Source of the values: patent US8158441B2, “Method for detecting aggregate-forming circulating protein forms using an agent for aggregating said forms and an agent for capturing formed aggregates” (Biomerieux S.A., priority 2005, dated 2012).
